Here are results for one substance from patent publication US20260055374A1, “EXPANSION OF HUMAN CELLS AND TISSUES FOR THERAPEUTIC PURPOSES AND METHODS OF USE” (HOUSEY PHARMACEUTICAL RESEARCH LABORATORIES, L.L.C., priority 2022, published 2026).

The test system of this series is 32D cells expressing insulin receptor and insulin receptor substrate-2 (IRS-2). The experiment in a line: Viability of 32D IR/IRS-2 cells by Trypan Blue exclusion with an automated cell counter. The settings on record: 32DIR-IRS-2 cells, after 72 hours of culture, data not shown.

Turning to insulin, the viability is reported as at most 60%.

For orientation: viability means the share of living cells, or the viability signal relative to a control. A lower viability goes with a greater loss of cells.
